# Measured values reported in US5284834A, “Adenosine functionalized congeners as cardiovascular treating agents for animals and methods for using same” (priority 1992, dated 1994).
# Amino acid sequences for entries named in this document (tags omitted).
# UniProt P11617, whole entry: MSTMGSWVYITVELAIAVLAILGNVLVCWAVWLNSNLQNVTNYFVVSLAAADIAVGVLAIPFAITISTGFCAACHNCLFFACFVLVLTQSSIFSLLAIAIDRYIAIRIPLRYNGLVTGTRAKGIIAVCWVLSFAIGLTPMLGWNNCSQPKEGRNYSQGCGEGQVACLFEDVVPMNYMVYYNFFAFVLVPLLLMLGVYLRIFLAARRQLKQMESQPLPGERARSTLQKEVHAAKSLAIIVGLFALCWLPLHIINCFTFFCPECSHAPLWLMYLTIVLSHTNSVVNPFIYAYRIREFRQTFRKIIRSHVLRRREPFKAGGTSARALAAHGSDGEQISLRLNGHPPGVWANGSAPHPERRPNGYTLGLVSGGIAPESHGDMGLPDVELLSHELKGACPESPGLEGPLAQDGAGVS
# Target: T1, Coronary A2-Adenosine Receptor (Canis lupus familiaris, UniProt P11617)
# T1 construct: The assay of coronary vasoactivity in the anesthetized, open-chest dog; from tissue; host or cells: coronary vessels in situ, anesthetized open-chest dog
# Test: Coronary vasoactivity in the anesthetized, open-chest dog (intracoronary infusion; MPR from EC50)
# Format: in vivo
# Conditions: molar potency ratio: EC50 of adenosine divided by that of the analogue
# Description: In the present invention there is compared the A1 - and A2 -potencies of a series of long-chain derivatives of adenosine suitable for attachment to "carriers," such as peptides or proteins, and for immobilization to polymeric matrices for affinity chromatography of adenosine receptors. The method employed is a comparison of increasing coronary blood flow via activation of an A2 -adenosine receptor versus an A1 -binding assay in rat brain.
# The potencies at A2 -receptors (Table 1) are expressed as a molar potency ratio of the EC50 value of adenosine divided by that of the adenosine analogue. A common reference compound on which to base molar potency ratios was needed to facilitate comparison of activities at A1 and A2 receptors. Adenosine itself cannot be used as a reference in the A1 binding assay since treatment of the membranes with adenosine deaminase is essential. […] Thus, MeAdo was used as a suitable reference compound.
# The assay of coronary vasoactivity in the anesthetized, open-chest dog, is described by Kusachi et al, J. Med. Chem., in press, and Olsson, et al, J. Circ. […] The assay estimates an EC-50, the concentration of analogue which produces a half maximum change in coronary conductance (reciprocal resistance). To reduce between-animal variability activity is expressed as a molar potency ratio (MPR) the value of the EC-50 of adenosine divided by that of the analogue. […]
smiles,measurement,value
CNC(=O)Cc1ccc(Nc2ncnc3c2ncn3[C@@H]2O[C@H](CO)[C@@H](O)[C@H]2O)cc1 [Compound 9],A2 Receptor MPR Relative to Ado,4.9 ± 1.3
